Experimental findings from US6566541B2, “Type 2 methionine aminopeptidase (MetAP2) inhibitors and uses thereof” (Massachusetts Institute of Technology, priority 1997, dated 2003) are described below.

The chains behind the UniProt entries cited, without tags or fusion partners.
UniProt P50579, whole entry: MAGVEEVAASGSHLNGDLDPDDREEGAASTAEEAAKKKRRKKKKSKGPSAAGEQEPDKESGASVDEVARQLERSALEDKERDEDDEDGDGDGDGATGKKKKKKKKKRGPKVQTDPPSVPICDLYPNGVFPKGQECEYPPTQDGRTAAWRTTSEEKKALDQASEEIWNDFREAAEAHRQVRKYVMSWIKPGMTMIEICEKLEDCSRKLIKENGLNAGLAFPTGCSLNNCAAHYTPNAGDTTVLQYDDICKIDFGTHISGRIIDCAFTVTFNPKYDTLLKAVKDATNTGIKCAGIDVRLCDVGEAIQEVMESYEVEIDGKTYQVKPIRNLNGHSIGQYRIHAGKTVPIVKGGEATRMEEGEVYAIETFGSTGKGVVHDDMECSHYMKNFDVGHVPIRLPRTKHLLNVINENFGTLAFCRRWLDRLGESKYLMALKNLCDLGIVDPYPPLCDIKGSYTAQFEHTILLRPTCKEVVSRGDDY

Experiment [1] relates to bovine aortic endothelial cell (BAEC). The experiment in a line: bovine aortic endothelial cell (BAEC) proliferation assay (MTT). Type of experiment: cell-based. Conditions: read-out: Proliferation IC50, average of at least three experiments.
Experiment [2] has as its target recombinant human MetAP2 (Homo sapiens, UniProt P50579). The experiment in a line: methionine aminopeptidase activity of MetAP2 (Met-Gly-Met-Met substrate). Conditions: read-out: MetAP2 IC50; MetAP2 enzymatic activity; average of at least three experiments. It is filed as biochemical.

As for `COC1C(O)CCC2(CO2)C1C1(C)OC1CC=C(C)C` (centres unmarked), the IC50 in experiment [1] was 9.5 nM; in experiment [2] it was 8 nM.
As for `COC1C(O)CCC(O)(CSC)C1C1(C)OC1CC=C(C)C` (centres unmarked), the IC50 in experiment [1] amounted to 2800 nM; in experiment [2], 5000 nM.
With `COC1C(OC(=O)CCCCl)CCC2(CO2)C1C1(C)OC1CC=C(C)C` (centres unmarked), the IC50 in experiment [1] stood at 0.12 nM.
